# Test results reported in US20070213324A1 (priority 2006, published 2007).
# Test: Phase I bioavailability study, single dose and steady state
# Conditions: meloxicam, acute administration
compound,measurement,value
"Cc1cnc(NC(=O)C2=C(O)c3ccccc3S(=O)(=O)N2C)s1 [Meloxicam, 4-hydroxy-2-methyl-N-(5-methyl-2-thiazolyl)-2H-1,2-benzothiazine-3-carboxamide-1,1-dioxide]","bioequivalence, combined versus on its own",bioequivalent
